# Source: publication PMC10454913, “Neurohypophysial and paracrine vasopressinergic signaling regulates aquaporin trafficking to hydrate marine teleost oocytes” (Frontiers in Endocrinology, 2023)
# The chains behind the UniProt entries cited, without tags or fusion partners. Residues count along the entry.
# UniProt R9X0I6, 1-388: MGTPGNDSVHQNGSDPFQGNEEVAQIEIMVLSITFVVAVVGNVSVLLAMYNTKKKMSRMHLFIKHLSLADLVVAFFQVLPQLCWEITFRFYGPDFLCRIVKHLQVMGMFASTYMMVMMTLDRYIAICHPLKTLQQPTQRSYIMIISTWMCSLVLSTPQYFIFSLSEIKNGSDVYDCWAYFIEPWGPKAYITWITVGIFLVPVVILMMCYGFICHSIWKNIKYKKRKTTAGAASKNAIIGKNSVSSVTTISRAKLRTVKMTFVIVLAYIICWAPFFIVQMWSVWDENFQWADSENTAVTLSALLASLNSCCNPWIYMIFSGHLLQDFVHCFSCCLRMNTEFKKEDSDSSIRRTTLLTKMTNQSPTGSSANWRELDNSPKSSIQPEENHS
# Target: seabream Avpr1aa (Sparus aurata, UniProt R9X0I6)
# Test: Activation of seabream Avpr1aa in transfected HEK293T cells (pCRE-luc / pSRE-luc reporters, Fluo-4 AM Ca2+)
# Format: cell-based, gilthead seabream (Sparus aurata)
# Settings: antagonist 10^-12 to 10^-5 M before 10^-8 M Avp
structure (smiles),measurement,value
"COc1cc(OC2CCN(C(C)=O)CC2)ccc1C(=O)N1CCC(N2C(=O)OCc3ccccc32)CC1 [L-371,257, 1-(1-[4-[(N-acetyl-4-piperidinyl)oxy]-2-methoxybenzoyl]piperidin-4-yl)-4H-3,1-benzoxazin-2(1H)-one]",effect on Avpr1aa activation,no effect
